Tests used:
MHR black-grass plants = assay: Phytotoxicity screen: compound pre-treatment of MHR black-grass followed by chlortoluron, scored for phytotoxic injury; type: in vivo, black-grass (Alopecurus myosuroides); settings: compound at 80 g a.i. ha^−1 on 14 day old MHR black-grass; chlortoluron 500 g a.i.ha^−1 48 h later; scored after 10 days
AmGSTF1 = assay: Effect of inhibitors on activity of recombinant black-grass AmGSTF1-1; type: biochemical, black-grass (Alopecurus myosuroides); settings: 0.1 mM inhibitor; recombinant enzyme
MHR black-grass = assay: Spray trial: effect of inhibitor pre-treatment on MHR (herbicide resistance) in black-grass; type: in vivo, black-grass (Alopecurus myosuroides)
AmGSTL1 = assay: Effect of inhibitors on activity of recombinant black-grass AmGSTL (thiol transferase); type: biochemical, black-grass (Alopecurus myosuroides); settings: 0.1 mM inhibitor; recombinant enzyme
MHR Peldon plants = assay: Flavonoid content of MHR Peldon plants after inhibitor treatment; settings: compared with WT

Compound	Score (phytotoxic injury) (MHR black-grass plants)	inhibition of AmGSTF1 activity (AmGSTF1)	effect on resistance to chlortoluron (MHR black-grass; applied 48 h prior to chlortoluron)	effect on resistance to fenoxaprop ethyl (MHR black-grass; applied 48 h prior to fenoxaprop ethyl)	inhibition of AmGSTL1 activity (AmGSTL1)	flavonoid content in MHR Peldon plants (MHR Peldon plants)
Cc1ccc([N+](=O)[O-])c2no[n+]([O-])c12	+					
Nc1c([N+](=O)[O-])cc([N+](=O)[O-])c2nsnc12	+					
O=[N+]([O-])c1ccc(Cl)c2nonc12		totally inhibited	reduced resistance	reduced resistance	totally inhibited	reduced the flavonoid content in MHR Peldon plants to WT levels

From patent US20100184601A1, “Method and Means Relating to Multiple Herbicide Resistance in Plants” (University of Durham, priority 2007, published 2010)
